# From PubChem BioAssay
# Rows were chosen to be rich in hits. Some 13% of all compounds tested hit in one or more screens of this group.
# miR-21 reporter: miR-21 reporter, rising signal; Potency, µM (doses to about 38.3 µM), without a hit: at the top dose reporter change, positive = more light; HeLa miR-21 FLuc reporter, luciferase, 48 h; 340,000 tested, under 10 active; active = well fitted rising curve with a large enough effect; inconclusive = small, poorly fitted or top-dose-only effect; inactive = no such curve, though single readings can be large or run the other way;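 further: % of control where 0% means no effect; miR-21 action dims this reporter so a rising signal means less miR-21 action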
#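 Using DMEM plus 10% FBS, HeLa miR-21-FLuc cells are incubated with test compounds (final up to about 40uM) for 48 hours; firefly luciferase signal is then imaged following reagent-mediated lysis.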
# Lamin A splicing: changes lamin A minigene splicing in HeLa cells. 0.01% of 200,000 active. Potency, µM (top dose mostly 46.1 µM), for inactives: top-dose ratio change, negative = inhibition, actives largely listed as inhibitors. HeLa LMNA splicing GFP/RFP minigene ratio, 48 h; active means well fitted inhibition curve with a large enough effect in the signal ratio, with a control signal flat, not every such curve was filed as active; inconclusive means small, poorly fitted or top-dose-only effect, or effect the other way, or a change in a side signal; the % refers to the signal ratio; further: potency means the concentration at half of the fitted maximal effect; on the % scale 0 is the no-effect control and ±100 the full control effect
#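 S3 HeLa stable clones carrying a lamin A-EGFP splicing minigene plus DsRed2 were seeded at 600 cells/well in Opti-MEM with 2% FBS, pin-dosed and incubated 48 h at 37°C. Acumen cytometry (488 nm) gave the GFP/RFP total-intensity ratio.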
# ALDH1A1 block: ALDH1A1 (human) enzyme inhibition | P00352 | Purified ALDH1A1, NADH fluorescence, propionaldehyde substrate | Potency, µM (highest dose often 75.3 µM), without a hit: at the highest dose activity, negative = inhibition, actives largely listed as inhibitors | 7.3% of 220,000 active | AID 1030; active means well fitted inhibition curve with a large enough effect, not every such curve was filed as active; inconclusive means small, poorly fitted or top-dose-only effect, or another doubt; inactive means no such curve, though single readings can be large or run the other way;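 further: potency means the concentration at half of the fitted maximal effect; plate controls were no enzyme wells and a reference inhibitor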
# JMJD2E inh: blocks human JMJD2E demethylase activity; Potency, µM (doses to about 57.1 µM), for the others: at the top dose activity change, negative = inhibition, most hits filed as inhibitors; AID 2147; JMJD2E catalytic domain, FDH-coupled NADH fluorescence (FDH is formaldehyde dehydrogenase); 1.6% of 230,000 active; B2RXH2; active means well fitted inhibition curve with a large enough effect, not every such curve was filed as active; inconclusive means small, poorly fitted or top-dose-only effect, or another doubt; inactive means no such curve, though single readings can be large or run the other way;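 further: potency means the concentration at half of the fitted maximal effect; 0% = wells with enzyme and -100% = buffer wells without enzyme; nearly all actives have a fitted effect of over 50% in size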
# Sfp inh: qHTS Assay for Inhibitors of Bacillus subtilis Sfp phosphopantetheinyl transferase (PPTase) | Biochemical Sfp PPTase activity, qHTS | Potency, µM, without a hit: max response, negative = inhibition, most hits filed as inhibitors | actives 3.5% (n = 310,000) | AID 1490, 2009 | 4'-phosphopantetheinyl transferase ffp (Bacillus subtilis), Q9F4F7; active = well fitted inhibition curve with a large enough effect; inconclusive = small, poorly fitted or top-dose-only effect, or another doubt; inactive = no such curve, though single readings can be large or run the other way;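 note: the enzyme is Sfp with the accession as filed and its product quenches rhodamine fluorescence; potency is the fitted concentration of half-maximal effect; 0% = enzyme reaction without inhibitor and -100% = no enzyme wells; top concentration of the series not given in the record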
#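 Compounds were incubated with enzyme (final 15 nM) for 15 min at room temperature before substrate addition started the reaction. Fluorescence at 525 nm excitation, 598 nm emission was recorded immediately and after 30 minutes.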
# G9a block: inhibitors of human histone lysine methyltransferase G9a. Q96KQ7. G9a H3K9 monomethylation, AlphaScreen, 2 h. Potency, µM (highest dose often 102 µM), without a hit: top-dose activity, negative = inhibition, most hits filed as inhibitors. 8.8% of 350,000 active; further: potency means the concentration at half of the fitted maximal effect; on the % scale 0 is the no-effect control and ±100 the full control effect; nearly all actives have a fitted effect of over 75% in size
#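 AlphaScreen detection with an anti-monomethyl H3K9 antibody quantified product after a 2 h room-temperature reaction containing 500 nM biotinylated H3K9 peptide, 20 µM SAM and 20 nM enzyme, which had been preincubated 15 min with compound.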
# An asterisk follows results filed as active; ? = inconclusive; . = no result given; [ ] = dose if it differs, or a comment. Unless noted, the call rests on the fitted dose curve; in most records, active means well fitted curve in the direction sought with a large enough effect; inconclusive means small, poorly fitted or top-dose-only effect, or another doubt; inactive means no such curve, though single readings can be large; an effect the other way counts as inactive or inconclusive.
no.	Molecule	miR-21 reporter	Lamin A splicing	ALDH1A1 block	JMJD2E inh	Sfp inh	G9a block
1	Cc1noc(C)c1CS(=O)(=O)c1ccc([N+](=O)[O-])cc1	11%	.	32µM*	-10%	15%	6%
2	Nc1sccc1C(=O)c1ccccc1	-8%	?	?	8%	28µM*	45µM*
3	O=C(O)c1ncsc1-c1ccccc1	-1%	.	.	?	25µM*	14µM*
4	Cc1ccc(-c2c(C#N)c(N)nc3c2CCCC3)o1	0%	.	?	?	1%	7.9µM*
5	N#Cc1c(SCC(N)=O)nc2c(c1-c1ccncc1)CCCC2	-1%	11%[46 µM]	-5%	-15%	-41%	40µM*
6	Cc1ccccc1NC(=O)CSc1nc2c(c(-c3ccco3)c1C#N)CCCC2	-4%	2%	7%	-3%	14%	13%[59 µM]
7	N#Cc1c(SCC(=O)Nc2nccs2)nc2c(c1-c1ccco1)CCCC2	-23%	9%	?	4%	20µM*	?
8	CCSc1nc2c(c(-c3ccc(C)o3)c1C#N)CCCC2	-11%	?	?	?	?	?
9	COC(=O)CSc1nc2c(c(-c3ccc(C)o3)c1C#N)CCCC2	1%	5%	?	?	50µM*	?
10	CC(C)(C)c1ccc(C(=O)N2CCCCC2CCN2CCCCC2)cc1 (configuration not stated)	3%	.	.	.	.	6%[59 µM]
11	CC(=O)Nc1cccc(NC(=O)CSc2cn(CC(=O)N3CCCCCC3)c3ccccc23)c1	6%	.	.	.	.	-34%[59 µM]
12	CCOc1cc(/C=N/NC(=O)c2ccc(-c3csc(Nc4ccc(C)cc4)n3)cc2)ccc1OCC(=O)O	-35%	-9%[46 µM]	-7%	?	?	45µM*
13	O=C(COc1ccc(Cl)cc1)OCc1csc(Nc2ccccc2)n1	-12%	-13%	0%	-2%	-13%	10µM*
14	O=C(O)COc1ccc(/C=N/NC(=O)c2ccc(-c3csc(Nc4ccc(Cl)cc4)n3)cc2)cc1	-12%	.	.	?	45µM*	-105%[59 µM]
15	C[C@@]12CC[C@@H]3c4ccc(O)cc4CC[C@H]3[C@H]1C[C@@H](O)[C@H]2O	.	?	-5%[20.9 µM]	-2%[25.5 µM]	35%	24%[21.5 µM]
16	O=C(COC(=O)CNC(=O)c1ccc(Cl)cc1)Nc1cccc(S(=O)(=O)N2CCCC2)c1	4%	.	.	-10%	12%	3%
17	CC1(C)Cc2ccccc2C2CC(O)C(=O)N21 (configuration not stated)	-4%	0%	?	?	?	22µM*
18	CCOc1ccc(NC(C)C(=O)N/N=C/c2cccs2)cc1 (configuration not stated)	-21%	?	?	2%	4%	45µM*
19	COc1ccccc1NC(C)C(=O)N/N=C/c1cccs1 (configuration not stated)	-6%	9%[46 µM]	4%	-5%	8%	-5%
20	Cc1cc2ccccc2nc1SCC(=O)Nc1nc(-c2ccccc2)cs1	-7%	-3%	7.9µM*	2%	18%	-12%
21	CN(C)CCCn1c(SCC(=O)Nc2nc(-c3cccc(Br)c3)cs2)nc2ccccc2c1=O	-17%	.	.	?	45µM*	?
22	Cc1cc(SCC(=O)c2ccc(O)c(O)c2)n2nc(C)c(-c3ccccc3)c2n1	20%	.	.	?	0%	11µM*
23	Cc1cc(C)nc(SCC(=O)c2ccc(C)c(C)c2)n1	-22%	.	.	.	-9%	37%
24	Cc1cc(C)nc(SCC(=O)c2ccc(O)c(O)c2)n1	-37%	.	.	.	?	1.8µM*
25	Cc1cc(C)nc(SCC(=O)c2ccc(O)cc2O)n1	-6%	-5%	11%	-2%	45µM*	40µM*
26	Cc1ccc(-c2csc(NC(=O)CSC3=NCCS3)n2)cc1	-34%	-5%	-12%	-2%	?	1%[59 µM]
27	O=C(CSc1nc2ccccc2c(=O)[nH]1)c1ccc(O)c(O)c1	-19%	2%	?	25µM*	-13%	5%[12.7 µM]
28	Cc1cc(=O)[nH]c(SCC(=O)c2ccc(O)c(O)c2)n1	-4%	.	.	.	-58%	7.9µM*
29	Cc1ccc(-c2csc(NC(=O)CSc3nc(C)cc(=O)[nH]3)n2)cc1	-17%	?	?	-14%	-1%	45µM*
30	CCOC(=O)c1c(C)[nH]c(C)c1S(=O)(=O)NCC(=O)N(C)c1ccc(C)c(C)c1	1%	.	.	.	.	2%[59 µM]
31	Cc1ccc(C(=O)CSc2nc(C)cc(=O)[nH]2)cc1	-15%	3%	-6%	-6%	1%	50µM*
32	CCOC(=O)N1CCN(C(=O)CSCC(=O)Nc2nc(-c3ccc(-c4ccccc4)cc3)cs2)CC1	24%	?	?	35µM*	7%	-4%[59 µM]
33	CCOC(=O)N1CCN(C(=O)CSCC(=O)Nc2nc(-c3ccc(OC)cc3)cs2)CC1	-18%	?	-5%	-4%	7%	3%[12.7 µM]
34	Cc1cc(C)nc(SCC(=O)Nc2ncccn2)n1	-7%	-2%	5%	3%	11%	15%
35	Cc1cc(C)nc(SCC(=O)NN)n1	-1%	12%[46 µM]	10µM*	-3%	-13%	22µM*
36	COCc1cc(C)nc(SCC(=O)c2ccc(O)c(O)c2)c1C#N	-21%	?	-13%	28µM*	56µM*	10µM*
37	CCc1nc(-c2ccc(C)c(S(=O)(=O)N3CCN(c4ccc(C(C)=O)cc4)CC3)c2)no1	23%	2%[46 µM]	.	.	.	-1%[59 µM]
38	Cc1ccc(N2CC(NC(=O)CCc3ccccc3)CC2=O)cc1C (configuration not stated)	-8%	-3%[46 µM]	.	.	.	3%[59 µM]
39	COC(=O)c1c(NC(=O)c2ccc(Br)o2)sc(C)c1C	-4%	?	?	?	-15%	50µM*
40	COC(=O)c1c(NC(=O)c2ccco2)sc(C)c1C	-7%	12%	?	?	-9%	?
41	CCc1ccc(CCC(=O)Nc2sc(C)c(C)c2C(=O)OC)o1	-2%	-8%	?	?	56µM*	-36%[59 µM]
42	NS(=O)(=O)c1cc(C(=O)OCC(=O)c2ccccc2)c(Cl)cc1Cl	1%	.	16µM*	-5%	5%	.
43	Cc1ccc(S(=O)(=O)N/N=c2\sc3ccccc3n2C)cc1	0%	-8%	2%	7%	2%	0.79µM*
44	Nc1ccccc1-c1n[nH]c(=S)s1	-20%	-24%[46 µM]	?	?	-25%	0.63µM*
45	Cc1ccc(Cl)cc1NC(=O)COC(=O)c1ccc(N2CCCC2)c([N+](=O)[O-])c1	3%	2%	9%	2%	-5%	38%[59 µM]
46	COc1ccc(Cl)cc1NC(=O)CN(C)C(=O)c1ccc(N2CCCCCC2)c([N+](=O)[O-])c1	.	.	.	.	.	22µM*
47	COc1ccc(Cl)cc1NC(=O)CN(C)C(=O)c1ccc(N2CCCCC2)c([N+](=O)[O-])c1	.	.	.	.	.	7.9µM*
48	CCOC(=O)Nc1ccc(C(=O)/C=C/c2ccccc2)cc1	-30%	.	.	-25%	4%	.

# ALDH1A1 block, hit marks shown above
nr	Structure	miR-21 reporter	ALDH1A1 block	JMJD2E inh	Sfp inh	G9a block
1	Cc1noc(C)c1CS(=O)(=O)c1ccc([N+](=O)[O-])cc1	11%	32µM*	-10%	15%	6%
20	Cc1cc2ccccc2nc1SCC(=O)Nc1nc(-c2ccccc2)cs1	-7%	7.9µM*	2%	18%	-12%
35	Cc1cc(C)nc(SCC(=O)NN)n1	-1%	10µM*	-3%	-13%	22µM*
42	NS(=O)(=O)c1cc(C(=O)OCC(=O)c2ccccc2)c(Cl)cc1Cl	1%	16µM*	-5%	5%	.
